Assay results reported in article PMC11408749, “Molecular mechanisms for DNA methylation defects induced by ICF syndrome‐linked mutations in DNMT3B” (Protein Science : A Publication of the Protein Society, 2024).

How the values were obtained:
DNMT3BΔ214 ([…]) R823G = biological target: T1, DNMT3BΔ214 ([…]) R823G (human, R823G); assay: co-purification; cell suspensions of DNMT3B and DNMT3L mixed 4:1 and lysed together; HisTrap FF, TEV cleavage, second HisTrap (flow-through), HiTrap Heparin, Superdex 200 gel filtration; both proteins seen by SDS-PAGE; details: partners not purified
T1 construct: DNA methyltransferase 3B (DNMT3B), human, […], ICF syndrome-linked mutation R823G; pSOL vector (Lucigen); its tag is not described; Mutation found in ICF patients; also called R823G (in the DNMT3BΔ214‐3L complex); source: E. coli Rosetta2 (DE3) pLysS, co-purified with DNMT3L (HisTrap, TEV cleavage, heparin, gel filtration)

DNMT3BΔ214 ([…]) H814R = biological target: T2, DNMT3BΔ214 ([…]) H814R (human, H814R); assay: as above; details: partners not purified
T2 construct: DNA methyltransferase 3B (DNMT3B), human, […], ICF syndrome-linked mutation H814R; pSOL vector (Lucigen); its tag is not described; Mutation found in ICF patients; also called H148R (misprint in legends); source: E. coli Rosetta2 (DE3) pLysS, co-purified with DNMT3L (HisTrap, TEV cleavage, heparin, gel filtration)

[1] = biological target: T3, DNMT3BΔ214 ([…]), wild type (human); assay: as above; details: partners not purified
T3 construct: DNA methyltransferase 3B (DNMT3B), human, […] (N-terminal tail truncated; PWWP, ADD and MTase domains); Cloned in a pSOL expression vector (Lucigen) as pSol-tev-DNMT3BΔ214; also called WT DNMT3BΔ214; N‐terminal tail‐truncated DNMT3B; source: E. coli Rosetta2 (DE3) pLysS, co-purified with DNMT3L (HisTrap, TEV cleavage, heparin, gel filtration)

DNMT3BΔ214 ([…]) D817G = biological target: T4, DNMT3BΔ214 ([…]) D817G (human, D817G); assay: as above; details: partners not purified
T4 construct: DNA methyltransferase 3B (DNMT3B), human, […], ICF syndrome-linked mutation D817G; pSOL vector (Lucigen); its tag is not described; Mutation found in ICF patients; source: E. coli Rosetta2 (DE3) pLysS, co-purified with DNMT3L (HisTrap, TEV cleavage, heparin, gel filtration)

DNMT3BΔ214 ([…]) V818M = biological target: T5, DNMT3BΔ214 ([…]) V818M (human, V818M); assay: as above; details: partners not purified
T5 construct: DNA methyltransferase 3B (DNMT3B), human, […], ICF syndrome-linked mutation V818M; pSOL vector (Lucigen); its tag is not described; Mutation found in ICF patients; also called V181M (misprint in a legend); source: E. coli Rosetta2 (DE3) pLysS, co-purified with DNMT3L (HisTrap, TEV cleavage, heparin, gel filtration)

[2] = biological target: T6, DNMT3BΔ570 ([…]), wild type (human); assay: AUC; sedimentation velocity, 40,000 rpm, 15 h, 20 C; 20 mM Tris-HCl pH 8.0, 300 mM NaCl, 1 mM TCEP, 5% glycerol; WT DNMT3BΔ214-3L at 2.5, 5.0 and 6.25 uM, mutant complexes at 5 uM; c(s) model in SEDFIT; details: both partners purified
T6 construct: DNA methyltransferase 3B (DNMT3B), human, […] (MTase domain); Modified pET28a(+) with N-terminal 6xHis-SUMO tag and TEV site; also called WT DNMT3BΔ570; MTase domain of DNMT3B; source: E. coli Rosetta2 (DE3) pLysS, co-purified with DNMT3L (HisTrap, TEV cleavage, heparin, gel filtration); not shown: 6xHis-SUMO, N-terminal, cleaved

DNMT3BΔ570(R823G) ([…]) = biological target: T7, DNMT3BΔ570(R823G) ([…]) (human, R823G); assay: as above; details: both partners purified
T7 construct: DNA methyltransferase 3B (DNMT3B), human, […] (MTase domain), ICF syndrome-linked mutation R823G; Modified pET28a(+) with N-terminal 6xHis-SUMO tag and TEV site; Mutation found in ICF patients; also called R823G (in the DNMT3BΔ570‐3L complex); source: E. coli Rosetta2 (DE3) pLysS, co-purified with DNMT3L (HisTrap, TEV cleavage, heparin, gel filtration); not shown: 6xHis-SUMO, N-terminal, cleaved

Measured: binding result

B1: DNA MTase‐like domain of DNMT3L (residues 179–379) (domain or fragment, human, UniProt Q9UJW3 179-379, looked up)
chain: FETVPVWRRQPVRVLSLFEDIKKELTSLGFLESGSDPGQLKHVVDVTDTVRKDVEEWGPFDLVYGATPPLGHTCDRPPSWYLFQFHRLLQYARPKPGSPRPFFWMFVDNLVLNKEDLDVASRFLEMEPVTIPDVHGGSLQNAVRVWSNIPAIRSRHWALVSEEELSLLAQNKQSSKLAAKWPTKLVKNCFLPLREYFKYFS
notes: Modified pET28a(+) with N-terminal 6xHis tag and TEV site; source: E. coli Rosetta2 (DE3) pLysS, co-purified with DNMT3B (HisTrap, TEV cleavage, heparin, gel filtration); not shown: 6xHis, N-terminal, cleaved
binds: all assays above
